The subject of the data set is human primary fibroblasts. The data set can be described thus: SRB assay, 48 h, cytostasis, primary fibroblasts. The data set is classed as cell-based. The following applies: MTT 4 h and SRB 48 h. How it is done:
The compounds were tested between 0.001694 and 33.3333 µM, using a 4-hour-long MTT test to assess rapid toxicity and a 48-hour-long SRB assay to assess the long-term effects of the inhibition of proliferation (cytostasis). The MTT assay assesses the activity of mitochondrial complex I and detects rapid, direct toxicity, as well as indicating apoptosis and necrosis. The SRB assay measures the total protein content that is proportional to cell numbers; therefore, the assay can detect changes in cell numbers and can thus be used as a readout for cell proliferation. The SRB assay was performed after 48 h of treatment (with the exception of L428 cells, which were tested for 96 h due to their slower proliferation rate). In this setting, the SRB assay informs us of long-term changes to cell proliferation. We assessed the maximal inhibition within that concentration range, and descriptive statistics were performed. We performed a one-way ANOVA, followed by the Kruskal–Wallis test, regardless of the normal or non-normal distribution of the data. […]
The assay was performed similarly to the method used in [73]. […] Plates were measured in a plate photometer (Thermo Scientific Multiscan GO spectrophotometer, Waltham, MA, USA) at 540 nm. […] In calculations, the readings for these wells were considered as 1 and all readings were expressed relative to these values. […]
In general terms: The SRB assay estimates cell density from bound dye.

For “dichloro(η^6-p-cymene)osmium(II) dimer [Os-dimer]”, the “cytotoxic or cytostatic activity on fibroblasts (in words)” value is recorded as “None of the complexes, Os-3‒Os-6, or the Os-dimer exerted cytotoxic or cytostatic activity on fibroblasts”.

The record behind these values is paper PMC8776094, “Reactive Oxygen Species Production Is Responsible for Antineoplastic Activity of Osmium, Ruthenium, Iridium and Rhodium Half-Sandwich Type Complexes with Bidentate Glycosyl Heterocyclic Ligands in Various Cancer Cell Models” (International Journal of Molecular Sciences, 2022).
